# Laboratory results published in PubChem BioAssay AID652245 (The Scripps Research Institute Molecular Screening Center, 2013).
# Protein sequences, listed by entry. Tags and fused reporters are not part of them. Lines headed by an entry give the natural chain unless they say otherwise; changes in a name come on top.
# UniProt O60755: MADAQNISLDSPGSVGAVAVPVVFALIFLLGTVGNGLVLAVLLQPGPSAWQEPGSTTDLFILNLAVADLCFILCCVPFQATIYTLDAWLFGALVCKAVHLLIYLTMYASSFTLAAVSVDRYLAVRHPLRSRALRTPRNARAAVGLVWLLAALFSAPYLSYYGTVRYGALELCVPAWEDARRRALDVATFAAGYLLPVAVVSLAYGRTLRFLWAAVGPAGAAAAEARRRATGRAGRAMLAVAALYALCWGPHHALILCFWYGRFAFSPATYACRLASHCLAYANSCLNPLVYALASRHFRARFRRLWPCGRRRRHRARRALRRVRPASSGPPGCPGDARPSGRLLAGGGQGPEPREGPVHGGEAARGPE
# Only a part is listed here, and it is no random draw. Active and inactive are the calls of the source.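 How the source made its calls: active means inhibition above the primary screen's cutoff, the mean inhibition of all screened compounds plus 3 SD (cut at about 13% in these data); inactive means the rest.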
# Target: Galanin receptor type 3 (Homo sapiens) (UniProt O60755)
# Assay: blockers of human galanin receptor 3 – cell-based, fluorescence, triplicate, confirmation (AID 652245);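 further: 0% = forskolin plus galanin and 100% = forskolin alone with DMSO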
# Conditions: HEK293 GalR3 CNG cAMP biosensor, membrane potential fluorescence; at 3 µM; hits give high values; challenged with forskolin and galanin at EC90; galR3 fused to GalR1 carboxy tail
row,SMILES,inhibition
1,CCc1nc2c(n1)c1c(non1O)c1c2no[n+]1[O-],active: 41.8%
2,Cc1ccc(NP(=O)(Oc2ccccc2)Oc2ccccc2)nc1,inactive: 0.61%
3,CC1(CBr)Cn2c(nc3ccccc3c2=O)S1 (stereo not drawn),inactive: 8.52%
